Results reported in ChEMBL document CHEMBL5244279, “Perspectives on SARS-CoV-2 Main Protease Inhibitors” (J Med Chem, 2021).

Legend:
[1] = molecular target: T1, Replicase polyprotein 1ab (Severe acute respiratory syndrome coronavirus 2, UniProt P0DTD1); test: Inhibition of SARS CoV-2 Main protease incubated for 10 min by FRET assay
[2] = molecular target: T1, Replicase polyprotein 1ab; test: Inhibition of SARS CoV-2 Main protease using MCA-AVLQSGFR-Lys(DNP)-Lys-NH2 peptide as substrate by fluorescence based analysis

SMILES	IC50 [1]	IC50 [2]
O=C[C@H](C[C@@H]1CCNC1=O)NC(=O)[C@@H]1[C@H]2CCC[C@H]2CN1C(=O)CCc1cccc(F)c1	7.6 nM	–
O=c1c2ccccc2[se]n1-c1ccc([N+](=O)[O-])cc1	–	260 nM
O=C[C@H](C[C@@H]1CCNC1=O)NC(=O)[C@@H]1[C@H]2CCC[C@H]2CN1C(=O)COc1ccc(Cl)cc1	9.2 nM	–
